Drawing on PubChem BioAssay AID1499 (Sanford-Burnham Center for Chemical Genomics, 2009), this text covers activation for ten compounds.

Sequences of proteins named here, by UniProt entry; tags and fusion partners are left off.
UniProt P05107, whole entry, looked up: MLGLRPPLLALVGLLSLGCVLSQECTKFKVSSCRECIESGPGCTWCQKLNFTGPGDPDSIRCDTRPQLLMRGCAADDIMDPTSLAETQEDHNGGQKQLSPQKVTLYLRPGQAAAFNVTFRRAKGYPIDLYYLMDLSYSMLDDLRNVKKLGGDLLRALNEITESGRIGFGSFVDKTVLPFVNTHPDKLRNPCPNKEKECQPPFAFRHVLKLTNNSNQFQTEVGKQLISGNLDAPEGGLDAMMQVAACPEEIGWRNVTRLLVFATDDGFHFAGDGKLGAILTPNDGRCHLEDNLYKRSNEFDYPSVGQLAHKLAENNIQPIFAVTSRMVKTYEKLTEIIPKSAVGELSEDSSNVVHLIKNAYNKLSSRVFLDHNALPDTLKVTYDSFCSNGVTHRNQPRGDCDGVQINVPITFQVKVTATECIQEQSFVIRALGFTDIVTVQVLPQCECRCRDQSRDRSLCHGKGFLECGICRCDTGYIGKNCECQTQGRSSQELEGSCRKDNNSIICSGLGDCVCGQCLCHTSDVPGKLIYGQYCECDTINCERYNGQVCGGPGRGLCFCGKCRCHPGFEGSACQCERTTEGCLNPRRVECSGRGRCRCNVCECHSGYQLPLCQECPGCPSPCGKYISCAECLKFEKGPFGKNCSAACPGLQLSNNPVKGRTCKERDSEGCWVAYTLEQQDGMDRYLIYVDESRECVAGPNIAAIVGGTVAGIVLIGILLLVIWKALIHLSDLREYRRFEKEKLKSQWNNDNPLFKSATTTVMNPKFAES

The list shows a part of the results, in another mix than the full data. Active and inactive are the calls of the source.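 How the source made its calls: active means 10 µM primary screen giving 50% or more activity, confirmed by 40% or more on retest at that dose; inactive means the rest.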

This test addresses Integrin beta-2 (Homo sapiens) + Integrin alpha-M (Homo sapiens) (UniProt P05107+P11215). The test can be described thus: enhancers of CD11b/CD18 adhesion to fibrinogen, primary screen, K562 cells, luminescence (AID 1499). Particulars: ATPlite luminescence, at 10 µM, stronger effect = higher value.
`O=C(NCC1(N2CCOCC2)CCCCC1)c1cc(=O)[nH]c2ccccc12`: the activation is inactive: -1.6%.

In the case of `N#CC1(Nc2ccccc2)CCN(CCc2ccccc2)CC1`, the activation is inactive: 10.8%.

With `COc1ccc(NC2CCN(CCc3ccccc3)CC2)c(OC)c1`, the activation is inactive: -6.1%.

Take `O=C(OC1CN2CCC1CC2)C1c2ccccc2Oc2ccccc21` (stereo not given): the activation is inactive: 0.6%.

Consider `O=C(NCC1(N2CCOCC2)CCCCC1)c1cc2ccccc2o1`, for which the activation was inactive: 2.7%.

Turning to `CCC(CO)(C(=O)OC1CN2CCC1CC2)c1ccccc1` (stereo not given), the activation is inactive: -1%.

As for `CCOc1ncccc1C(=O)NCC1(N2CCOCC2)CCCCC1`, the activation is inactive: -5%.

On to `Fc1ccccc1NC1CCN(Cc2ccccc2)CC1`, for which the activation is inactive: -2.5%.

Regarding `c1ccc(CN2CCC(Nc3ccccc3)CC2)cc1`, the activation was inactive: -0.8%.

Consider `N/C(=N\O)c1c(N)no[n+]1[O-]`, for which the activation is inactive: -1%.
